Values of other authors, collected in patent US20120035103A1, “METHOD FOR ADMINISTRATION OF INSULIN AND PHARMACEUTICAL COMPOSITION THEREOF” (priority 2010, published 2012).

Conditions: pulmonary route, without absorption-enhancing agent

## insulin
  Bioavailability of the insulin administered: approximately 10%
